# Source: patent publication US20110098180A1, “Herbicide-Resistant Plants, And Polynucleotides And Methods For Providing Same” (United States Department of Agriculture, priority 2002, published 2011)
# Sequences of proteins named here, by UniProt entry; tags and fusion partners are left off. Residues count along the entry.
# UniProt Q66PY0, 1-580: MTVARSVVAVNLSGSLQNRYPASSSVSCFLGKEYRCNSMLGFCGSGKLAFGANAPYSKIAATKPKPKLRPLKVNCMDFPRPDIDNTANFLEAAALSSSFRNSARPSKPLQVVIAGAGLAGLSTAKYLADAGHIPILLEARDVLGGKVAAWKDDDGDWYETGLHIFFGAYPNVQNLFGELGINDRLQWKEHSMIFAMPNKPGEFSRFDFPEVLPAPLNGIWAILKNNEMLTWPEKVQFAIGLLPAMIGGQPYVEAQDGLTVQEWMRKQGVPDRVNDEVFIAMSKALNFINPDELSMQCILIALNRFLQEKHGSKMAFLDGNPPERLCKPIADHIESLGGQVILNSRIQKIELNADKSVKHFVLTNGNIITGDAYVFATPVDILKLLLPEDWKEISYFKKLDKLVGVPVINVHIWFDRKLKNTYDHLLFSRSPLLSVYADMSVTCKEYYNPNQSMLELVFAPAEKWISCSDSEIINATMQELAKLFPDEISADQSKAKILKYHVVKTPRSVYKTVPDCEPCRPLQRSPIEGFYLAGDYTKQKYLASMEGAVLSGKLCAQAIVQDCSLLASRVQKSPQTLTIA
# UniProt Q66PY0, 77-580: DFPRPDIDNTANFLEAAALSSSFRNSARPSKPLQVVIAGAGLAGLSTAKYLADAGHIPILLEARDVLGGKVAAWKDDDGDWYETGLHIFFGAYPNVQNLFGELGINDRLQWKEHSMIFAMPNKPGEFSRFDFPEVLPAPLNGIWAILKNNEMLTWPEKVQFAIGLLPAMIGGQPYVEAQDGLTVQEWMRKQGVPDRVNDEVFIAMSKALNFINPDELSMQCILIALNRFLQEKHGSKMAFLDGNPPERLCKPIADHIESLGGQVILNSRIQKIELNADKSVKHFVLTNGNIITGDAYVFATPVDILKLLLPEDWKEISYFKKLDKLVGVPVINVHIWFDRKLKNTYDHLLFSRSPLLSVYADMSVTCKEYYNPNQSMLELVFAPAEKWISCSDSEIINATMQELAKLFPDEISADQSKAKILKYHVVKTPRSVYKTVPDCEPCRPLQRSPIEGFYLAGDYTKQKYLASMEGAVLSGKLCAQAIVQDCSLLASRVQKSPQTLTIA
# UniProt Q66PY0, 1-580 R304S: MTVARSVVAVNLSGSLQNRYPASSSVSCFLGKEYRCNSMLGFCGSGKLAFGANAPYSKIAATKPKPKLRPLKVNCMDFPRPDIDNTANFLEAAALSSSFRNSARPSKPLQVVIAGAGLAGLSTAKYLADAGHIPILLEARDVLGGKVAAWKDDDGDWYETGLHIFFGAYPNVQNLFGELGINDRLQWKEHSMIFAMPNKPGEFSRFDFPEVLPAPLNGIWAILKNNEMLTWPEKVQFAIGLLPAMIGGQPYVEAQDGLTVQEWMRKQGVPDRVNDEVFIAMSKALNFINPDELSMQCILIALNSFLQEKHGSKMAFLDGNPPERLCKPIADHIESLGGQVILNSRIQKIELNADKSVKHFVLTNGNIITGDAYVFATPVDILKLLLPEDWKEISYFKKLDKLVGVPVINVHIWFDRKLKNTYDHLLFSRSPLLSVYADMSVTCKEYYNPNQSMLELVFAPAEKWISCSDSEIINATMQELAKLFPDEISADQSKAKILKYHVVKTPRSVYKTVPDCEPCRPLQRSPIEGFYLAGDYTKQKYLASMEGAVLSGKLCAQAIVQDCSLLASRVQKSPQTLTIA
# How the values were obtained:
# [1] = target: hydrilla PDS position 304 Arginine (wildtype) (Hydrilla verticillata, UniProt Q66PY0); assay: Cross resistance to bleaching herbicides, in vitro PDS inhibition, non-His-tagged (Table 2); format: biochemical; details: Arginine at 304 (reference)
# Experimental: (§1) The expression constructs in Table 2 were derived from an original clone of the susceptible PDS gene from Hydrilla and then the Arg^304 was mutated to the listed amino acid. Expression was under the control of the lac promoter but in frame with the initiation codon of the LacZalpha-ccdB gene in the pCR4-TOPO vector (Invitrogen Inc., CA, Cat. #K4575-01).
# (§2) All mutagenesis was performed, unless stated otherwise, using the TOPO-vector containing the wildtype (H4) PDS-sequence, which was extracted from an overnight culture with the Qiagen Plasmid Prep Kit as described above. The amount of the extracted plasmid was diluted to 10 ng/μl and used as template in a mutagenesis-procedure using the QuikChange Site-directed Mutagenesis Kit (Stratagene, Calif., #200518). The design of the mutagenesis-primers was conducted according to the manufacturers protocol to enable the specific change of Arg^304-codon to code for the desired amino acid. Primers (purchased from MWG-Biotech) and their introduced amino acid change are listed below with the changed codon underlined:
# (§3) The reactions were performed according to the manufacturers protocol. […] Sequences were assembled and analyzed using Seqman. […]
# (§4) Phytoene desaturase activity and its inhibition by herbicides was determined using an in vitro system using components derived from the in vivo production of phytoene and phytoene desaturase proteins. […]
# [2] = target: hydrilla PDS position 304 Arginine, His-tagged (Hydrilla verticillata, UniProt Q66PY0); assay: Cross-resistance testing, His-tagged column-purified PDS (Table 2A); format: biochemical; details: Arginine at 304 (reference), 30 min
# From the text: The alternative approach utilized His-tagging and column purification of the mutant PDS protins.
# In order to express pds in bacteria, deletion clones were made for each of the three potential start codons with and without ATG. […] The forward primers used were ORF (5′ […] 3′), ORF-ATG (5′ […] 3′), 3_ORF (5′[…] 3′) and 3_ORF-ATG (5′ […] 3′). The resulting plasmids were named pORF, pORF-ATG (minus ATG codon), p3ORF and p3ORF-ATG. The pds-containing EcoRI-fragments of these plasmids were subcloned into the EcoRI site of pRSETb vector (Invitrogen) for Histidine tagging and bacterial expression. The resulting constructs were pHy4SET, pHy4SET-ATG (minus ATG), p3ORFSET and p3ORFSET-ATG. […]
# All pRSET derived constructs were transformed into BL21(DE3)pLysS cells (Invitrogen), induced with IPTG for protein expression, and the His tag overproduced proteins analyzed by Western blot using Anti-HisG antibody (Invitrogen, cat. #R940-25). […]
# His-tagged, purified proteins prepared as described above were transferred to the assay buffer on a PD10 column (Amersham Bioscience) and the concentration was adjusted to 100 μg/mL. […] I^50 values were calculated from the regressions.
# [3] = system: Synechocystis PDS with mutation corresponding to Leu^542→Arg; details: prior work; cited from earlier work
# [4] = target: hydrilla PDS Arg^304 → Serine (Hydrilla verticillata, UniProt Q66PY0, R304S); assay: Cross resistance to bleaching herbicides, in vitro PDS inhibition, non-His-tagged (Table 2); format: biochemical; details: Serine at 304, construct in frame with LacZalpha-ccdB, read-out: I50
# Experimental: as §1, §2, §3, §4
compound,measurement,setting,value
CNc1cnn(-c2cccc(C(F)(F)F)c2)c(=O)c1Cl [Norflurazon],R/S,[1],1
same,R/S,[2],1
same,resistance provided by the mutation,[3],high level of resistance
"O=C(Nc1ccc(F)cc1)c1cccc(Oc2cccc(C(F)(F)F)c2)n1 [Piconilafen, Picolinafen]",pIC50,[4],5.64

# pIC50: −log10 of the molar value.
